Assay [1] relates to E. coli. Format: cell-based. The conditions noted are these: strain UB1005, Parent of DC2. As to the method:
(§1) The minimum inhibitory concentrations of (MIC) of CEME, CEMA and melittin were determined for a number of different bacteria (Table 2). Briefly, cells were grown overnight at 37° C. in LB-S (Luria broth without any salt supplement) and diluted one in 10,000 in the same medium to give concentrations of about 10^4 to 10^5 CFU/ml. The broth dilutions were set up in a 96 well microtiter plate by putting 200 μl of LB-S containing the initial concentration of antibiotic or compound in column 1 and 100 μl of the same medium in columns 2-12. The compounds were diluted by taking 100 μl of broth from column 1 and mixing it with column 2, resulting in a one in two dilution. This was continued to column 10. Finally, 10 μl of bacteria were pipetted into columns 1-11, and the plates incubated overnight at 37° C. The next day the plates were scored for growth in the wells, and the MIC determined.

Assay [2] concerns E. cloacae. Type of assay: cell-based. The conditions noted are these: strain 218S, Parent of 218R1. As to the method:
as §1

≈ marks a conversion by molar mass, not a printed value.

As to `CC[C@H](C)[C@H](NC(=O)CN)C(=O)NCC(=O)N[C@@H](C)C(=O)N[C@H](C(=O)N[C@@H](CC(C)C)C(=O)N[C@@H](CCCCN)C(=O)N[C@H](C(=O)N[C@@H](CC(C)C)C(=O)N[C@H](C(=O)N[C@H](C(=O)NCC(=O)N[C@@H](CC(C)C)C(=O)N1CCC[C@H]1C(=O)N[C@@H](C)C(=O)N[C@@H](CC(C)C)C(=O)N[C@H](C(=O)N[C@@H](CO)C(=O)N[C@@H](Cc1c[nH]c2ccccc12)C(=O)N[C@H](C(=O)N[C@@H](CCCCN)C(=O)N[C@@H](CCCNC(=N)N)C(=O)N[C@@H](CCCCN)C(=O)N[C@@H](CCCNC(=N)N)C(=O)N[C@@H](CCC(N)=O)C(=O)N[C@@H](CCC(N)=O)C(N)=O)[C@@H](C)CC)[C@@H](C)CC)[C@@H](C)O)[C@@H](C)O)C(C)C)C(C)C` [Melittin, melittin], the MIC in assay [1] and in assay [2] was 8 µg/mL (≈ 2.81 µM) throughout.

A word on the MIC: it is the smallest concentration in the dilution series that meets the test's criterion for growth inhibition.
